Results as given in patent US9555039B2, “Piperidine derivatives and compositions for the inhibition of nicotinamide phosphoribosyltransferase (NAMPT)” (Forma TM, LLC., priority 2011, dated 2017).

By UniProt entry, the sequences of proteins in these tests, tags left out. Where a name states a change or a piece, a line headed by the entry shows the natural chain unless it says otherwise.
UniProt P43490: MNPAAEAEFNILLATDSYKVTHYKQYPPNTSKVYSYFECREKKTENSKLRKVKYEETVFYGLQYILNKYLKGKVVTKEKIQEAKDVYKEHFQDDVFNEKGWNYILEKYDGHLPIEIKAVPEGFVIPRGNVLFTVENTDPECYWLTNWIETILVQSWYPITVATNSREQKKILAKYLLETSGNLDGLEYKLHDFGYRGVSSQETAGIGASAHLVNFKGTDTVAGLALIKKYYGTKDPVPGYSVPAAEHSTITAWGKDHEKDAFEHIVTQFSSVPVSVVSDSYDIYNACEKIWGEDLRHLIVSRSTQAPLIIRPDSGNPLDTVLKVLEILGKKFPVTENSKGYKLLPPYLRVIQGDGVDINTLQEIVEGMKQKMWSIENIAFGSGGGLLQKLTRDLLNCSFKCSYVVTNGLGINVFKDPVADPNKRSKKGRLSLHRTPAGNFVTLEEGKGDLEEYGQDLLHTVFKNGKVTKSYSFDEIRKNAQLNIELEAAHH

target: T1, Recombinant His-tagged NAMPT (Homo sapiens, UniProt P43490); assay: Biochemical inhibition assay: NAMPT enzymatic reaction, NMN quantified by mass spectrometry; conditions: 33 nM NAMPT, 1 μM NAM, 100 μM PRPP, 2.5 mM ATP, 30 minutes at room temperature; read-out: Biochem IC50
T1 construct: His; host or cells: E. coli
Protocol: Biochemical Inhibition Assay
NAMPT Protein Purification
Recombinant His-tagged NAMPT was produced in E. coli cells, purified over a Ni column, and further purified over a size-exclusion column by XTAL Biostructures.
The NAMPT Enzymatic Reaction
The NAMPT enzymatic reactions were carried out in Buffer A (50 mM Hepes pH 7.5, 50 mM NaCl, 5 mM MgCl2, and 1 mM THP) in 96-well V-bottom plates. The compound titrations were performed in a separate dilution plate by serially diluting the compounds in DMSO to make a 100× stock. […] The compound and enzyme mix was incubated for 15 minutes at room temperature, then 10 μL of 10× substrate and co-factors in Buffer A were added to the test well to make a final concentration of 1 μM NAM, 100 μM 5-Phospho-D-ribose 1-diphosphate (PRPP), and 2.5 mM Adenosine 5′-triphosphate (ATP). The reaction was allowed to proceed for 30 minutes at room temperature, then was quenched with the addition of 11 μL of a solution of formic acid and L-Cystathionine to make a final concentration of 1% formic acid and 10 μM L-Cystathionine. Background and signal strength was determined by addition (or non-addition) of a serial dilution of NMN to a pre-quenched enzyme and cofactor mix.
A mass spectrometry-based assay was used to measure the Nampt reaction product (NMN) and the internal control (L-Cystathionine). NMN and L-Cystathionine were detected using the services of Biocius Lifesciences with the RapidFire system. In short, the NMN and L-Cystathionine are bound to a graphitic carbon cartridge in 0.1% formic acid, eluted in 30% acetonitrile buffer, and injected into a Sciex 4000 mass spectrometer. The components of the sample were ionized with electrospray ionization and the positive ions were detected. […] The fragments are quantified and the analyzed by the following method.
First the NMN signal is normalized to the L-Cystathionine signal by dividing the NMN signal by the L-Cystathionine signal for each well. The signal from the background wells are averaged and subtracted from the test plates.
Wherein x denotes the average signal of the compound treated wells and y denotes the average signal of the DMSO treated wells.
IC50s are Determined Using Excel and this Formula.
Wherein X denotes the compound concentration 1, Y denotes the compound concentration 2, XX denotes the % inhibition at compound concentration 1 (X), and YY denotes the % inhibition at compound concentration 2 (Y).

SMILES	IC50 [nM]
O=C(NCCCCC1CCN(C(=O)c2cccc(Cl)c2)CC1)c1cc2cnccc2[nH]1 [N-(4-{1-[(3-chlorophenyl)carbonyl]piperidin-4-yl}butyl)-1H-pyrrolo[3,2-c]pyridine-2-carboxamide]	21.7
Cc1cccc(C(=O)N2CCC(CCCCNC(=O)c3cc4ccncc4s3)CC2)c1F [N-(4-{1-[(2-fluoro-3-methylphenyl)carbonyl]piperidin-4-yl}butyl)thieno[2,3-c]pyridine-2-carboxamide]	21.2
COc1cccc(C(=O)N2CCC(CCCCNC(=O)c3ccc4nccn4c3)CC2)c1 [N-(4-{1-[(3-methoxyphenyl)carbonyl]piperidin-4-yl}butyl)imidazo[1,2-a]pyridine-6-carboxamide]	21.2
O=C(NCCCCC1CCN(C(=O)c2ccc(-n3cccn3)cc2)CC1)c1ccc2nccn2c1 [N-[4-(1-{[4-(1H-pyrazol-1-yl)phenyl]carbonyl}piperidin-4-yl)butyl]imidazo[1,2-a]pyridine-6-carboxamide]	30.7
O=C(NCCCCC1CCN(C(=O)c2ccc(F)cc2)CC1)c1cc2cnccc2[nH]1 [N-(4-{1-[(4-fluorophenyl)carbonyl]piperidin-4-yl}butyl)-1H-pyrrolo[3,2-c]pyridine-2-carboxamide]	59.8
COc1cccc(C(=O)N2CCC(CCCCNC(=O)c3cc4cnccc4[nH]3)CC2)c1 [N-(4-{1-[(3-methoxyphenyl)carbonyl]piperidin-4-yl}butyl)-1H-pyrrolo[3,2-c]pyridine-2-carboxamide]	24.8
COc1ccc(Cl)cc1C(=O)N1CCC(CCCCNC(=O)c2cc3cnccc3[nH]2)CC1 [N-(4-{1-[(5-chloro-2-methoxyphenyl)carbonyl]piperidin-4-yl}butyl)-1H-pyrrolo[3,2-c]pyridine-2-carboxamide]	33.8
COc1cc(OC)cc(C(=O)N2CCC(CCCCNC(=O)c3ccc4nccn4c3)CC2)c1 [N-(4-{1-[(3,5-dimethoxyphenyl)carbonyl]piperidin-4-yl}butyl)imidazo[1,2-a]pyridine-6-carboxamide]	22.5
O=C(NCCCCC1CCN(C(=O)c2cc(F)ccc2F)CC1)c1cc2ccncc2s1 [N-(4-{1-[(2,5-difluorophenyl)carbonyl]piperidin-4-yl}butyl)thieno[2,3-c]pyridine-2-carboxamide]	7.6

system: A2780 cells; assay: In-vitro cell proliferation assay (SRB, 72 hours); assay type: cell-based; conditions: Homo sapiens, sulforhodamine B (SRB) assay
Protocol: In-Vitro Cell Proliferation Assay
After overnight incubation at 37° C. and 5% CO2, the compound titrations were performed in a separate dilution plate by serially diluting the compounds in DMSO to make a 1000× stock. The compounds were then further diluted to 10× final concentration in culture media, whereupon 20 μL of each dilution was added to the plated cells with controls (e.g. DMSO and blank) to make a final volume of 200 μL. The final DMSO concentration in each well was 0.1%. The plates were then incubated for 72 hours at 37° C. in a 5% CO2 incubator. The number of viable cells was then assessed using sulforhodamine B (SRB) assay. Cells were fixed at 4° C. for 1 hour with the addition of 50 μL 30% trichloroacetic acid (TCA) to make a final concentration of 6% TCA. The plates were washed four times with H2O and allowed to dry for at least 1 hour, whereupon 100 μL of a 4% SRB in 1% acetic acid solution was added to each well and incubated at room temperature for at least 30 minutes. The plates were then washed three times with 1% acetic acid, dried, and treated with 100 μL of 10 mM Tris-Base solution. The plates were then read in a microplate reader at an absorbance of 570 nm. Background was generated on a separate plate with media only.
Method for Determining % Inhibition
First, the signals from the background plate are averaged, then the background was subtracted from the test plates.
wherein x denotes the average signal of the compound-treated cells and y denotes the average signal of the DMSO-treated cells.
wherein X denotes the compound concentration 1, Y denotes the compound concentration 2, XX denotes the % inhibition at compound concentration 1 (X), and YY denotes the % inhibition at compound concentration 2 (Y).

SMILES	IC50 [nM]
COCc1ccc(C(=O)N2CCC(CCCCNC(=O)c3cc4ccncc4s3)CC2)nc1 [N-[4-(1-{[5-(methoxymethyl)pyridin-2-yl]carbonyl}piperidin-4-yl)butyl]thieno[2,3-c]pyridine-2-carboxamide]	30.2
CC(C)c1ncoc1C(=O)N1CCC(CCCCNC(=O)c2cc3ccncc3s2)CC1 [N-[4-(1-{[4-(propan-2-yl)-1,3-oxazol-5-yl]carbonyl}piperidin-4-yl)butyl]thieno[2,3-c]pyridine-2-carboxamide]	7.6
O=C(NCCCCC1CN(C(=O)c2ccccc2)C1)c1cc2cnccc2[nH]1 [N-[4-(1-benzoylazetidin-3-yl)butyl]-1H-pyrrolo[3,2-c]pyridine-2-carboxamide]	76.9
